The record followed here is patent publication US8513418B2, “Substituted bicyclic methyl amine derivatives as sphingosine-1 phosphate receptors modulators” (Allergan, Inc., priority 2011, dated 2013).

By UniProt entry, the sequences of proteins in these tests, tags left out.
UniProt P21453, whole entry: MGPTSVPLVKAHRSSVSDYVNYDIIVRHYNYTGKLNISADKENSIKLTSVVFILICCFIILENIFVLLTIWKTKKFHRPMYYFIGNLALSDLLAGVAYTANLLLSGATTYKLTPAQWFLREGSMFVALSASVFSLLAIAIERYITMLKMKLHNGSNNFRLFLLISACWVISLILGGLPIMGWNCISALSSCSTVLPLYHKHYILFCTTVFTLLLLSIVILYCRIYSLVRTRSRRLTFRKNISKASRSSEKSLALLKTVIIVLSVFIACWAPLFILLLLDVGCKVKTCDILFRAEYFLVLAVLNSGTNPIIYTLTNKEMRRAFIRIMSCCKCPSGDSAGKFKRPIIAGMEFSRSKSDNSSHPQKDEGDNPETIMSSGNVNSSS

This assay concerns the target human S1P1 receptor (Homo sapiens, UniProt P21453). Description: GTP γ35S binding assay for S1P1 activity. The conditions noted are these: read-out: S1P1 EC50, membranes of cells stably expressing the S1P1 receptor. As to the method:
Novel compounds were synthesized and tested for S1P1 activity using the GTP γ^35S binding assay. These compounds may be assessed for their ability to activate or block activation of the human S1P1 receptor in cells stably expressing the S1P1 receptor. GTP γ^35S binding was measured in the medium containing (mM) HEPES 25, pH 7.4, MgCl2 10, NaCl 100, dithitothreitol 0.5, digitonin 0.003%, 0.2 nM GTP γ^35S, and 5 μg membrane protein in a volume of 150 μl. Test compounds were included in the concentration range from 0.08 to 5,000 nM unless indicated otherwise. Membranes were incubated with 100 μM 5′-adenylylimmidodiphosphate for 30 min, and subsequently with 10 μM GDP for 10 min on ice. Drug solutions and membrane were mixed, and then reactions were initiated by adding GTP γ^35S and continued for 30 min at 25° C. Reaction mixtures were filtered over Whatman GF/B filters under vacuum, and washed three times with 3 mL of ice-cold buffer (HEPES 25, pH7.4, MgCl2 10 and NaCl 100). Filters were dried and mixed with scintillant, and counted for ^35S activity using a 8-counter. Agonist-induced GTP γ^35S binding was obtained by subtracting that in the absence of agonist. Binding data were analyzed using a non-linear regression method. In case of antagonist assay, the reaction mixture contained 10 nM […] in the presence of test antagonist at concentrations ranging from 0.08 to 5000 nM. […]

Structures are written as SMILES.

Consider `OCCNCc1ccc(CCCCCCc2ccccc2)c2cccnc12`, for which the EC50 (usually the concentration needed to bring the measured effect to its halfway point) is 637 nM.
